This is an account of results in paper PMC7793260.

Assay [1] has as its target PBP2 (wild type), fused to mKO or to mCherry (E. coli) (UniProt P0AD65). Kind of assay: FRET or BRET; two-plasmid spectral FRET in E. coli LMC500 cells; mCherry fusion as acceptor, mKO fusion as donor; Gb4 medium, steady state at 28 C, 15 uM IPTG for two mass doublings, FAGA-fixed; acceptor FRET efficiency (EfA) by spectral unmixing.
Assay [2] has as its target mKO-^MalFNTPBP2 (E. coli). The description is as above.

As for “mCh-MreD (from UniProt P0ABH4 1-162) (natural protein)”, the EfA (acceptor FRET efficiency) in assay [1] came out at 4.3%; in assay [2] it was 5.3%.
